For the assay, the system named is Ovarian cancer cells SKOV-3. The assay is described as follows: ovarian cancer xenograft model (Example 13). Format: in vivo, SCID mice. Conditions: 10 mg/kg i.p. 1/week. The source says: Ovarian cancer cells SKOV-3 (5 millions) were implanted s.c. on the right flank of SCID mice (CB17, female, 4-6 weeks) (Charles River, Wilmington, Mass.). The mice were divided into four groups, 5 mice for each group. The treatments were started when the tumor volume reached at around 60 mm3, day 8 after tumor implantation. […] The tumor growth was monitored for the duration of the experiment. […] (FIG. 14)

For the substance trastuzumab [HERCEPTIN®], the tumor growth result is listed as “inhibited tumor growth”.

The values are drawn from patent US8765791B2, “Method of treating cancer using a neuropeptide Y 5R (NP Y5R) antagonist” (University Health Network, priority 2008, dated 2014).
